Cyclic peptide permeability, from CycPeptMPDB

Values of Kelly et al. 2021, doi:10.1021/jacs.0c06115, as listed in CycPeptMPDB.

PAMPA measures passive passage through an artificial lipid membrane.
Permeability is in 10^-6 cm/s, converted from the database's log10 values; higher is more permeable.

structure (SMILES) | PAMPA (10^-6 cm/s)
CC(=O)N1CCC[C@H]1C(=O)N(C)[C@@H](CC(C)C)C(=O)N[C@@H]1C(=O)N[C@H](CC(C)C)C(=O)N[C@@H](CC(C)C)C(=O)N[C@@H](CC(C)C)C(=O)N[C@@H](C)C(=O)N[C@H](CC(C)C)C(=O)N2CCC[C@H]2C(=O)O[C@@H]1C | 0.089
CC(=O)N1CCC[C@@H]1C(=O)N(C)[C@@H](CC(C)C)C(=O)N[C@@H]1C(=O)N(C)[C@H](CC(C)C)C(=O)N[C@@H](CC(C)C)C(=O)N(C)[C@@H](CC(C)C)C(=O)N[C@@H](C)C(=O)N[C@@H](CC(C)C)C(=O)N2CCC[C@H]2C(=O)O[C@@H]1C | 2.4
CC(=O)N[C@@H]1C(=O)N2CCC[C@H]2C(=O)N(C)[C@H](CC(C)C)C(=O)N[C@@H](CC(C)C)C(=O)N[C@@H](CC(C)C)C(=O)N(C)[C@@H](CC(C)C)C(=O)N(C)[C@H](C)C(=O)N[C@@H](CC(C)C)C(=O)N2CCC[C@@H]2C(=O)O[C@@H]1C | 0.4
CC(=O)N1CCC[C@@H]1C(=O)N(C)[C@@H](CC(C)C)C(=O)N[C@@H]1C(=O)N[C@H](CC(C)C)C(=O)N[C@H](CC(C)C)C(=O)N(C)[C@H](CC(C)C)C(=O)N[C@H](C)C(=O)N[C@H](CC(C)C)C(=O)N2CCC[C@@H]2C(=O)O[C@@H]1C | 1
CC(=O)N1CCC[C@H]1C(=O)N[C@@H]1C(=O)N(C)[C@H](CC(C)C)C(=O)N[C@H](CC(C)C)C(=O)N[C@@H](CC(C)C)C(=O)N(C)[C@H](CC(C)C)C(=O)N(C)[C@H](C)C(=O)N[C@@H](CC(C)C)C(=O)N2CCC[C@@H]2C(=O)O[C@@H]1C | 1.3
CC(=O)N1CCC[C@H]1C(=O)N(C)[C@@H](CC(C)C)C(=O)N[C@@H]1C(=O)N(C)[C@@H](CC(C)C)C(=O)N(C)[C@@H](CC(C)C)C(=O)N(C)[C@@H](CC(C)C)C(=O)N(C)[C@H](C)C(=O)N[C@H](CC(C)C)C(=O)N2CCC[C@@H]2C(=O)O[C@@H]1C | 0.56
CC(=O)N1CCC[C@H]1C(=O)N(C)[C@@H](CC(C)C)C(=O)N[C@@H]1C(=O)N[C@H](CC(C)C)C(=O)N(C)[C@@H](CC(C)C)C(=O)N(C)[C@H](CC(C)C)C(=O)N[C@@H](C)C(=O)N[C@H](CC(C)C)C(=O)N2CCC[C@@H]2C(=O)O[C@@H]1C | 0.56
CC(=O)N[C@@H]1C(=O)N2CCC[C@H]2C(=O)N(C)[C@H](CC(C)C)C(=O)N(C)[C@H](CC(C)C)C(=O)N(C)[C@@H](CC(C)C)C(=O)N(C)[C@@H](CC(C)C)C(=O)N(C)[C@@H](C)C(=O)N[C@@H](CC(C)C)C(=O)N2CCC[C@@H]2C(=O)O[C@@H]1C | 3.4
CC(=O)N1CCC[C@H]1C(=O)N(C)[C@@H](CC(C)C)C(=O)N[C@@H]1C(=O)N[C@H](CC(C)C)C(=O)N[C@H](CC(C)C)C(=O)N[C@@H](CC(C)C)C(=O)N[C@@H](C)C(=O)N[C@@H](CC(C)C)C(=O)N2CCC[C@H]2C(=O)O[C@@H]1C | 0.14
CC(=O)N1CCC[C@H]1C(=O)N(C)[C@@H](CC(C)C)C(=O)N[C@@H]1C(=O)N(C)[C@@H](CC(C)C)C(=O)N(C)[C@@H](CC(C)C)C(=O)N[C@H](CC(C)C)C(=O)N(C)[C@H](C)C(=O)N[C@H](CC(C)C)C(=O)N2CCC[C@@H]2C(=O)O[C@@H]1C | 0.91
CC(=O)N1CCC[C@H]1C(=O)N(C)[C@H](CC(C)C)C(=O)N[C@@H]1C(=O)N[C@@H](CC(C)C)C(=O)N(C)[C@H](CC(C)C)C(=O)N(C)[C@@H](CC(C)C)C(=O)N(C)[C@@H](C)C(=O)N[C@H](CC(C)C)C(=O)N2CCC[C@@H]2C(=O)O[C@@H]1C | 4.1
CC(=O)N1CCC[C@H]1C(=O)N(C)[C@@H](CC(C)C)C(=O)N[C@@H]1C(=O)N(C)[C@@H](CC(C)C)C(=O)N[C@@H](CC(C)C)C(=O)N[C@@H](CC(C)C)C(=O)N[C@@H](C)C(=O)N[C@H](CC(C)C)C(=O)N2CCC[C@H]2C(=O)O[C@@H]1C | 0.05
CC(=O)N[C@@H]1C(=O)N2CCC[C@H]2C(=O)N(C)[C@H](CC(C)C)C(=O)N(C)[C@H](CC(C)C)C(=O)N(C)[C@@H](CC(C)C)C(=O)N(C)[C@@H](CC(C)C)C(=O)N(C)[C@H](C)C(=O)N[C@@H](CC(C)C)C(=O)N2CCC[C@@H]2C(=O)O[C@@H]1C | 4.2
CC(=O)N1CCC[C@@H]1C(=O)N(C)[C@H](CC(C)C)C(=O)N[C@@H]1C(=O)N[C@@H](CC(C)C)C(=O)N(C)[C@H](CC(C)C)C(=O)N(C)[C@@H](CC(C)C)C(=O)N(C)[C@@H](C)C(=O)N[C@H](CC(C)C)C(=O)N2CCC[C@@H]2C(=O)O[C@@H]1C | 1.1
CC(=O)N1CCC[C@@H]1C(=O)N(C)[C@H](CC(C)C)C(=O)N[C@@H]1C(=O)N[C@@H](CC(C)C)C(=O)N[C@@H](CC(C)C)C(=O)N(C)[C@@H](CC(C)C)C(=O)N(C)[C@H](C)C(=O)N[C@H](CC(C)C)C(=O)N2CCC[C@@H]2C(=O)O[C@@H]1C | 0.93
CC(=O)N1CCC[C@H]1C(=O)N(C)[C@H](CC(C)C)C(=O)N[C@@H]1C(=O)N(C)[C@@H](CC(C)C)C(=O)N(C)[C@@H](CC(C)C)C(=O)N(C)[C@H](CC(C)C)C(=O)N(C)[C@@H](C)C(=O)N[C@@H](CC(C)C)C(=O)N2CCC[C@H]2C(=O)O[C@@H]1C | 5.5
CC(=O)N1CCC[C@@H]1C(=O)N(C)[C@H](CC(C)C)C(=O)N[C@@H]1C(=O)N[C@@H](CC(C)C)C(=O)N[C@H](CC(C)C)C(=O)N(C)[C@@H](CC(C)C)C(=O)N(C)[C@@H](C)C(=O)N[C@@H](CC(C)C)C(=O)N2CCC[C@@H]2C(=O)O[C@@H]1C | 6
CC(=O)N1CCC[C@H]1C(=O)N(C)[C@H](CC(C)C)C(=O)N[C@@H]1C(=O)N[C@H](CC(C)C)C(=O)N[C@@H](CC(C)C)C(=O)N(C)[C@H](CC(C)C)C(=O)N(C)[C@H](C)C(=O)N[C@H](CC(C)C)C(=O)N2CCC[C@@H]2C(=O)O[C@@H]1C | 1.7
CC(=O)N1CCC[C@H]1C(=O)N[C@@H]1C(=O)N(C)[C@H](CC(C)C)C(=O)N[C@@H](CC(C)C)C(=O)N[C@@H](CC(C)C)C(=O)N[C@@H](CC(C)C)C(=O)N[C@H](C)C(=O)N[C@@H](CC(C)C)C(=O)N2CCC[C@@H]2C(=O)O[C@@H]1C | 0.048
CC(=O)N[C@@H]1C(=O)N2CCC[C@H]2C(=O)N(C)[C@H](CC(C)C)C(=O)N[C@H](CC(C)C)C(=O)N[C@@H](CC(C)C)C(=O)N[C@H](CC(C)C)C(=O)N[C@H](C)C(=O)N[C@@H](CC(C)C)C(=O)N2CCC[C@@H]2C(=O)O[C@@H]1C | 0.055
CC(=O)N1CCC[C@@H]1C(=O)N(C)[C@H](CC(C)C)C(=O)N[C@@H]1C(=O)N[C@@H](CC(C)C)C(=O)N(C)[C@H](CC(C)C)C(=O)N(C)[C@@H](CC(C)C)C(=O)N(C)[C@@H](C)C(=O)N[C@@H](CC(C)C)C(=O)N2CCC[C@H]2C(=O)O[C@@H]1C | 1.4
CC(=O)N[C@@H]1C(=O)N2CCC[C@H]2C(=O)N(C)[C@H](CC(C)C)C(=O)N[C@H](CC(C)C)C(=O)N[C@@H](CC(C)C)C(=O)N[C@H](CC(C)C)C(=O)N[C@@H](C)C(=O)N[C@@H](CC(C)C)C(=O)N2CCC[C@@H]2C(=O)O[C@@H]1C | 0.068

Again, the 4 entries with the lowest PAMPA:

{"smiles": "CC(=O)N1CCC[C@H]1C(=O)N[C@@H]1C(=O)N(C)[C@H](CC(C)C)C(=O)N[C@@H](CC(C)C)C(=O)N[C@@H](CC(C)C)C(=O)N[C@@H](CC(C)C)C(=O)N[C@H](C)C(=O)N[C@@H](CC(C)C)C(=O)N2CCC[C@@H]2C(=O)O[C@@H]1C", "PAMPA (10^-6 cm/s)": "0.048"}
{"smiles": "CC(=O)N1CCC[C@H]1C(=O)N(C)[C@@H](CC(C)C)C(=O)N[C@@H]1C(=O)N(C)[C@@H](CC(C)C)C(=O)N[C@@H](CC(C)C)C(=O)N[C@@H](CC(C)C)C(=O)N[C@@H](C)C(=O)N[C@H](CC(C)C)C(=O)N2CCC[C@H]2C(=O)O[C@@H]1C", "PAMPA (10^-6 cm/s)": "0.05"}
{"smiles": "CC(=O)N[C@@H]1C(=O)N2CCC[C@H]2C(=O)N(C)[C@H](CC(C)C)C(=O)N[C@H](CC(C)C)C(=O)N[C@@H](CC(C)C)C(=O)N[C@H](CC(C)C)C(=O)N[C@H](C)C(=O)N[C@@H](CC(C)C)C(=O)N2CCC[C@@H]2C(=O)O[C@@H]1C", "PAMPA (10^-6 cm/s)": "0.055"}
{"smiles": "CC(=O)N[C@@H]1C(=O)N2CCC[C@H]2C(=O)N(C)[C@H](CC(C)C)C(=O)N[C@H](CC(C)C)C(=O)N[C@@H](CC(C)C)C(=O)N[C@H](CC(C)C)C(=O)N[C@@H](C)C(=O)N[C@@H](CC(C)C)C(=O)N2CCC[C@@H]2C(=O)O[C@@H]1C", "PAMPA (10^-6 cm/s)": "0.068"}

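Conditions beyond the assay type are not listed; see the original paper. The list need not hold all peptides of the study. Entries at the database's floor value (log10 P of -10) are not listed.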